# Values quoted from earlier work in patent US20260327317A1, “PROTEASE-CLEAVABLE MOIETIES AND METHODS OF USE THEREOF” (CytomX Therapeutics, Inc., priority 2022, published 2026).
# Tested on: H292 (human lung cancer cell line) xenograft tumors
# Conditions: stated as background without reference; cited from earlier work
substance,measurement,value
"cetuximab: anti-EGFR antibody cetuximab, which lacks a prodomain","responsiveness of H292 cell line, in words",responsive to the anti-EGFR antibody cetuximab
